Consider 1 compound from ChEMBL document CHEMBL1152038, “Quaternised renzapride as a potent and selective 5-HT4 receptor agonist” (Bioorg Med Chem Lett, 1993).

Sequences of proteins named here, by UniProt entry; tags and fusion partners are left off. A change or cut given only in a name is not applied to a line headed by its entry.
UniProt Q62758: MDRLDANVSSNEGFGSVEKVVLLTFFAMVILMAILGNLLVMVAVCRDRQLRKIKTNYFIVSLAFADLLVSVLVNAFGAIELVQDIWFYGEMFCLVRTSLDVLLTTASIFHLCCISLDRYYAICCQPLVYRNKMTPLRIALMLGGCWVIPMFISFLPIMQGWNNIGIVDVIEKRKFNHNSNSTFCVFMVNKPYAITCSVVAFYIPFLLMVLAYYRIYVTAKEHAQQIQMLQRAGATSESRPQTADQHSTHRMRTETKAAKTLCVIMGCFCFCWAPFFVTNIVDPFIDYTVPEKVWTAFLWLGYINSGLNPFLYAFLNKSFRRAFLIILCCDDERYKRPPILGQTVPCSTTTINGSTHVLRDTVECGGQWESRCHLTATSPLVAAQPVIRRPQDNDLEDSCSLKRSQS

This assay has as its target 5-hydroxytryptamine receptor 4 (Rattus norvegicus, UniProt Q62758). Nature of the assay: Tested for its agonist potency against the 5-hydroxytryptamine 4 receptor located in the rat esophageal tunica muscularis mucosae. It is filed as functional, tissue-based, Muscularis mucosa.

What is called EC50 is the concentration giving half of the maximal effect. The low end stands for an effect from little substance, the high end for a need for much substance. Consider `CCN(CC)CCNC(=O)c1cc(Cl)c(N)cc1OC` [METOCLOPRAMIDE], for which the response was half-maximal at 794 nM (EC50).
